Test results: patent US20240360148A1 (SUVALENT THERAPEUTICS, INC., priority 2021, published 2024)

Protein sequences, listed by entry. Tags and fused reporters are not part of them.
UniProt Q9UBE0, whole entry: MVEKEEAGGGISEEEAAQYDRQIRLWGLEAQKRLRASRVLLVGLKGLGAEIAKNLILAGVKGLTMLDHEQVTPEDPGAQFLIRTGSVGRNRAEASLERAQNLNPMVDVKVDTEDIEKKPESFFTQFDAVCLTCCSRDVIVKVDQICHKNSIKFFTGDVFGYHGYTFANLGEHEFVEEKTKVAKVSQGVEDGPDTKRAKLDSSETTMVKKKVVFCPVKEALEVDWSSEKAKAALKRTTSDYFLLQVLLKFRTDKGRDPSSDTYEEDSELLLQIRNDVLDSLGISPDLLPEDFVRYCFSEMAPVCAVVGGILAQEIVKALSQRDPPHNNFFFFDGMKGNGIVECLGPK
UniProt Q9UBT2, whole entry: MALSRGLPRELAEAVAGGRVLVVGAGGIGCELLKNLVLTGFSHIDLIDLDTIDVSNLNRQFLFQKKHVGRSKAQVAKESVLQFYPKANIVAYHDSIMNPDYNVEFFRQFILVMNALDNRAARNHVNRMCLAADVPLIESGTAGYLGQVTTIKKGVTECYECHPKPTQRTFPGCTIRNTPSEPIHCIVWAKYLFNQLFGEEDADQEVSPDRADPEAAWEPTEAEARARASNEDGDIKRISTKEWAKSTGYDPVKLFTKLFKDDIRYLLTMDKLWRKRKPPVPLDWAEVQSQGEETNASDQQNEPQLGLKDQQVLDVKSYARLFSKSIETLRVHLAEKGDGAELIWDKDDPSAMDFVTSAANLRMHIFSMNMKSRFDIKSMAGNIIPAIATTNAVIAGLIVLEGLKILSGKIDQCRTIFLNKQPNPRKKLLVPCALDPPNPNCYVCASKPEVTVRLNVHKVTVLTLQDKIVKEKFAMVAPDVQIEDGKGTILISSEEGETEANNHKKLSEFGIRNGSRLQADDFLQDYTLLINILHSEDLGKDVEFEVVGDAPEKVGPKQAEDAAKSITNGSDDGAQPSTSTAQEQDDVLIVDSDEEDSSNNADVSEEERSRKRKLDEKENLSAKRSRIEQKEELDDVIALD

How the values were obtained:
SAE1 = SAE1 (Homo sapiens (Human), UniProt Q9UBE0+Q9UBT2); experiment: SAE High Throughput Biochemical Assay (HTRF), 15 min preincubation; conditions: read-out: 15 min preincubation HTRF IC50 (μM) Ave, SAE1 12.5 nM, ATP 100 μM
[1] = test system: sumoylation levels (SUMO 2/3 conjugates) in HCT-116 cells; experiment: HCT-116 4 Hour Cell Assay (Western, SUMO 2/3 conjugates); conditions: read-out: HCT-116 Western 4 h IC50 (μM) Ave, 4 h treatment, Anti-Sumo 2-3 immunoblot
Method: This protocol describes the procedures used to assess the effects of compounds of interest on sumoylation levels. Immunoblot of SUMO 2/3 conjugates are performed and IC50 curves are generated upon quantification of sumoylations bands. HCT-116 cells are seeded in a 12 well plate (500,000 cells/well). The following day the cells are treated with compounds of interest (resuspended in DMSO) for 4 hours (11 concentrations with a three-fold dilution; starting concentration 25 μM) Following 4 hours of incubation the cells are washed with ice cold PBS 1×and protein extraction is performed with RIPA buffer supplemented with phosphatases and proteases inhibitors, 25 mM of NEM and 50 units/mL of Benzonase. Samples undergo centrifugation at 13,000 RPM, 4° C., for 10 minutes and the supernatant is collected. Protein quantification is performed using BCA. Non-Reducing Laemmli Buffer is added to the samples. Samples are heated at 75° C. for 10 minutes, and are centrifuged for 3 minutes at 9000 RPM Nupage 4-12% Bis Tris gels and 1× MOPS buffer (Fisher Scientific)+1× NuPAGE Antioxidant (Invitrogen) are used to perform the SDS-PAGE gel electrophoresis (20 to 40 μg of proteins are loaded in the gels). Proteins are then transferred to PVDF membranes and the level of total proteins are measured by staining with Revert Total Protein Stain and the fluorescent bands are acquired using the LI-COR FC (700 nm for 1 min) Membranes are blocked for 5 minutes with Bio-Rad Blocking Buffer and are subsequently incubated over night at 4° C. with Anti-Sumo 2-3 mAb (M BL #M114-3, 1:1000 in Bio-Rad Blocking Buffer, 0.2% Tween 20) Membranes are washed with 1×TBS-T (3 times for 5 minutes) and sumoylation is detected using Li-cor IRDye 800CW Goat anti-Mouse IgG secondary antibody (1:10,000 dilution) upon 1 hour of incubation in blocking buffer with 0.2% Tween 20 and 0.01% SDS. After the incubation, the membranes are washed with 1×TBS-T (3 times for 5 minutes). […] Sumoylation levels are quantified upon normalization with total protein levels, using the LI-COR Image Studio Lite 5.2 Software.

IC50 [1]	SMILES	IC50 (SAE1)
2.06 µM	CCn1cc(-c2c(F)cccc2[C@@H]2CN(C(=O)/C=C/CNC3CC(F)(F)C3)Cc3sc(C#N)cc32)c(C(F)(F)F)n1	4.79 µM
> 25 µM	CCn1cc(-c2c(F)cccc2[C@@H]2CN(C(=O)/C=C/CNC3CN(C(C)=O)C3)Cc3sc(C#N)cc32)c(C(F)(F)F)n1	0.97 µM
0.444 µM	CCn1cc(-c2ccccc2C2CN(C(=O)/C=C/CN(C)C)Cc3sc(C#N)cc32)c(C(F)(F)F)n1 (stereo not drawn)	4.12 µM
